This test relates to plasmid DNA (pLL3.7). The experiment in a line: In vitro assay of structural alterations of plasmid DNA. As to conditions: +37° C.
The mark [1] stands for this setting: in the absence of copper sulphate.
Where [2] appears, read: in the presence of copper sulphate (CuSO4), 10 mM Tris-HCl pH 7.4.

Regarding `CN1CCN(Cc2occc(=O)c2O)CCN(C)CCN(Cc2occc(=O)c2O)CC1` [Compound L9, 4(N),10(N)-bis[(3-hydroxy-4-pyron-2-yl)methyl]-1,7-dimethyl-1,4,7,10-tetraazacyclododecane], the “alteration of plasmid DNA electrophoretic migration” value reads like this: under setting [1], “induce almost exclusively plasmid DNA species having a low electrophoretic mobility”; under setting [2], “important alteration of the electrophoretic migration of the DNA which results mainly concentrated at the loading well”.

With “N,N′-bis[(3-hydroxy-4-pyron-2-yl)methyl]-N,N′-dimethylethylendiamine”, the “alteration of plasmid DNA electrophoretic migration” value is, setting by setting: under setting [1], “induce almost exclusively plasmid DNA species having a low electrophoretic mobility”; under setting [2], “important alteration of the electrophoretic migration of the DNA which results mainly concentrated at the loading well”.

The values are drawn from patent US9145381B2, “Derivative of [(3-hydroxy-4-pyron-2-yl)-methyl]-amine and use thereof as anti-neoplastic drugs” (Universita' Degli Studi Di Urbino, priority 2008, dated 2015).
